The text below walks through data of PubChem BioAssay (EPA / NIEHS).

Sequences of proteins named here, by UniProt entry; tags and fusion partners are left off.
UniProt P03372, whole entry, looked up: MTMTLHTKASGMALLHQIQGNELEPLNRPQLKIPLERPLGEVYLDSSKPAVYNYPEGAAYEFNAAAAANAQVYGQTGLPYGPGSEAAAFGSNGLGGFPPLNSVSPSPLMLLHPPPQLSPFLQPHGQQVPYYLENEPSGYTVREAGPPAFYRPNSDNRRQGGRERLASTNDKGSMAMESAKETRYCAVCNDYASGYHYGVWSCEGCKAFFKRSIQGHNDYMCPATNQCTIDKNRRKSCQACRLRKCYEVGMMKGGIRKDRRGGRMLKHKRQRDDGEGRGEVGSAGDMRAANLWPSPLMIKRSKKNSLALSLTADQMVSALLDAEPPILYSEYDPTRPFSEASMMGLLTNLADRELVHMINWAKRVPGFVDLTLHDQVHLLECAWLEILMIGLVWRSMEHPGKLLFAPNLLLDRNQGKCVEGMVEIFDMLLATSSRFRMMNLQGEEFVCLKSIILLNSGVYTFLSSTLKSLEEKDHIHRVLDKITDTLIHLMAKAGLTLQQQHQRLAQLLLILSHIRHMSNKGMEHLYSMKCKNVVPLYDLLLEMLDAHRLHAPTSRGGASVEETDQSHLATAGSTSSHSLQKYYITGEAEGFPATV

By AC50 is commonly meant the concentration at which the activity in the assay is half-maximal.

Each structure is given as a SMILES string. Values joined by “and” are separate entries in the source; they are usually repeats but may differ in a detail not shown here. Equal values may be shown once. The list shows a part of the results, in another mix than the full data. Results filed as inconclusive are left out. Some structures have more than one record in an assay (separate samples or runs), and their calls can disagree. Active and inactive are the calls of the source. How the source made its calls, unless noted: active means hit-call score of the fitted dose curve at least 0.9, where 1 is the maximum; inactive means score below 0.9.

For test [1], the target named is Estrogen receptor (Homo sapiens) (UniProt P03372). Kind of test: CCTE_Deisenroth_AIME_384WELL_LUC_Shift: CCTE's 384-well Estrogen Receptor Transactivation Assay with AIME metabolic competence data shift (ERTA luciferase; difference in metabolism positive and negative), Deisenroth Lab (AID 2284041).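 Further: shift is response with S9 minus without S9 so positive means metabolism raised ER signal.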 The gist of the method:
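Test chemicals (0.002–200 uM, 10-point) were pre-incubated 2 h with alginate microspheres containing phenobarbital/beta-naphthoflavone-induced male Sprague Dawley rat liver S9 or water, then medium was transferred to VM7Luc4E2 cells for 24 h luciferase readout; shift = S9-positive minus S9-negative normalized response.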

The next test deals with DIO2 (gene 1734). Kind of test: CCTE_GLTED_hDIO2: CCTE's human Deiodinase 2 (DIO2) Inhibition Assay, Great Lakes Toxicology and Ecology Division (GLTED) Lab (AID 2284050; active means hit-call score of the fitted dose curve at least 0.9, where 1 is the maximum). The gist of the method:
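Cell-free human DIO2 incubated 3 h with chemical; liberated iodide quantified by Sandell-Kolthoff absorbance. Triplicate plates; loss of signal fitted vs DMSO.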

Test [2] can be described thus: CCTE_Shafer_MEA_acute_AB: CCTE's Alamar Blue Assay for Cytotoxicity in the Neural Acute Assay, Shafer Lab (AID 2284069; active means hit-call score of the fitted dose curve at least 0.9, where 1 is the maximum;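 further: active compounds lower the viability signal compared with DMSO wells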). The method in brief: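 Metabolic activity in chemically exposed rat cortical neurons (MEA cultures, day 13/15 post-plating) measured via CellTiter Blue resazurin reduction, 544/590 nm fluorescence; fitted relative to DMSO, with signal loss indicating reduced viability.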
In general terms: Alamar Blue is a resazurin reagent that responds to reducing activity.

Test [3] in a line: CCTE_Shafer_MEA_acute_LDH: CCTE's Lactate Dehydrogenase Assay for Cytotoxicity in the Neural Acute Assay, Shafer Lab (AID 2284086; active means hit-call score of the fitted dose curve at least 0.9, where 1 is the maximum;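 further: active means LDH release rises above DMSO vehicle level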). The method in brief:
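Medium from rat cortical neuron MEA cultures sampled right after the 40 min compound-exposure recording; released LDH measured by absorbance at 490 nm. Analyzed as signal gain relative to DMSO.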

Test [4] can be described thus: CCTE_Shafer_MEA_dev_active_electrodes_number: CCTE's Neural Network Formation Assay for Number of Active Electrodes, Shafer Lab (AID 2284040; active means hit-call score of the fitted dose curve at least 0.9, where 1 is the maximum;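 on AC50: potency for loss of active electrodes versus DMSO so lower counts are hits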). The method in brief:
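Primary rat cortical neurons on 16-electrode MEA wells, exposed from day 0 through day 12 with compound renewed at DIV 5 and 9 feeds. Active electrodes (mean firing ≥5 spikes/min) counted at DIV 5, 7, 9, 12; trapezoidal AUC across days, loss-of-signal versus DMSO.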

Test [5] is described as follows: CCTE_Shafer_MEA_dev_burst_rate: CCTE's Neural Network Formation Assay for Burst Rate, Shafer Lab (AID 2284042). The gist of the method:
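Cells plated, treated day 0; recorded DIV 5, 7, 9, 12; fed and re-treated DIV 5, 9. Endpoint: bursts per recording time, active-electrode well mean, trapezoidal AUC, fitted in decreasing direction against DMSO baseline.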

Test [6] can be described thus: CCTE_Shafer_MEA_dev_bursting_electrodes_number: CCTE's Neural Network Formation Assay for Number of Bursting Electrodes, Shafer Lab (AID 2284043; active means hit-call score of the fitted dose curve at least 0.9, where 1 is the maximum;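 on AC50: potency is for loss of bursting electrodes relative to DMSO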). The gist of the method:
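Read-out is the per-well number of electrodes bursting at least once every 2 minutes, recorded on days 5, 7, 9 and 12 and collapsed by trapezoidal area under the curve. Cultures were primary rat cortical neurons on MEA plates, treated continuously from plating.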

The nature of test [7]: CCTE_Shafer_MEA_dev_per_burst_interspike_interval: CCTE's Neural Network Formation Assay for Burst Interspike Interval, Shafer Lab (AID 2284044).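 On AC50: potency for a decrease of within-burst interspike interval below DMSO level.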 The gist of the method:
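Readout is the average time between spikes inside single-electrode bursts, taken as a well mean across bursting electrodes. Cortical neurons from rat developed networks on MEA plates under continuous 12-day exposure; recordings on days 5, 7, 9 and 12 were integrated by trapezoidal AUC.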

A short description of test [8]: CCTE_Shafer_MEA_dev_burst_duration_mean: CCTE's Neural Network Formation Assay for Mean Burst Duration, Shafer Lab (AID 2284045).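 On AC50: curve fitted for loss meaning shorter burst duration than DMSO.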 The gist of the method: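 Read-out: average first-to-last-spike interval within single-electrode bursts, averaged over bursting electrodes per well, then summarised as area under the curve across days 5, 7, 9 and 12. Developing rat cortical networks were exposed from day 0.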

A short description of test [9]: CCTE_Shafer_MEA_dev_interburst_interval_mean: CCTE's Neural Network Formation Assay for Mean Interburst Interval, Shafer Lab (AID 2284046).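 Further: well-mean interburst interval of bursting electrodes as AUC over four recording days; curve fitted for decrease in interburst interval relative to DMSO.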 The method in brief:
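Developing rat cortical networks on 48-well MEAs receive compound from the day of plating. Burst intervals from each active electrode are averaged per well, and AUC over the recording days is fitted in the negative direction against DMSO.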

Test [10] can be described thus: CCTE_Shafer_MEA_dev_inter_network_spike_interval_mean: CCTE's Neural Network Formation Assay for Mean Inter-network Spike Interval, Shafer Lab (AID 2284047). The method in brief:
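Rat cortical cultures, 1.5 x 10^5 cells/well on 48-well MEA plates; continuous exposure days 0–12, medium and compound refreshed DIV 5, 9. Mean time between consecutive network-spike peaks; AUC across DIV 5/7/9/12; DMSO baseline, negative fitting direction.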

Test [11] can be described thus: CCTE_Shafer_MEA_dev_network_spike_number: CCTE's Neural Network Formation Assay for Number of Network Spikes, Shafer Lab (AID 2284048).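 On AC50: fit as a loss of signal meaning fewer network spikes than DMSO.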 The gist of the method: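 Developing networks of primary rat cortical neurons are treated over 12 days starting at plating, with media and compound fully replaced on DIV 5 and 9. Network spike counts from four recording days are integrated as trapezoidal AUC.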

Test [12] can be described thus: CCTE_Shafer_MEA_dev_network_spike_peak: CCTE's Neural Network Formation Assay for Mean Number of Electrodes in Network Spike, Shafer Lab (AID 2284049).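 On AC50: fitted for loss of signal meaning fewer electrodes in network spikes than DMSO.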 The gist of the method:
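Rat cortical primary culture, 1.5 x 10^5 cells/well, 48-well MEA (16 electrodes/well). Dosing day 0 through DIV 12, full media/compound exchange DIV 5, 9. AxIS adaptive spike detection; AUC over days 5/7/9/12; loss-of-signal vs DMSO.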

Test [13] is described as follows: CCTE_Shafer_MEA_dev_spike_duration_mean: CCTE's Neural Network Formation Assay for Mean Spike Duration, Shafer Lab (AID 2284051).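 Further: potency for a decrease in mean network spike duration versus DMSO.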 The method in brief: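 Readout is the average length of network spikes, clustered firing across electrodes, summed over DIV 5, 7, 9 and 12 as area under the curve. Neurons from rat cortex developed networks on MEA plates under continuous 12-day exposure.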

Test [14] in a line: CCTE_Shafer_MEA_dev_network_spike_duration_std: CCTE's Neural Network Formation Assay for Standard Deviation of Network Spike Duration, Shafer Lab (AID 2284052).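 Further: hits are decreases in network spike duration SD versus DMSO vehicle.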 The gist of the method:
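Read-out is the trapezoidal area-under-the-curve across recordings made on days 5, 7, 9 and 12, fitted in the negative direction against DMSO baseline. Neurons were primary rat cortical cells treated from day 0, with treatment renewed at each feed.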

The nature of test [15]: CCTE_Shafer_MEA_dev_per_network_spike_spike_number_mean: CCTE's Neural Network Formation Assay for Mean Number of Spikes in a Network Spike, Shafer Lab (AID 2284053).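 On AC50: fitted as decrease in spikes per network spike relative to DMSO.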 The gist of the method: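 Continuous twelve-day exposure of developing rat cortical networks grown over 16 microelectrodes per well; spontaneous firing is captured at four time points, and the per-network-spike spike number is integrated over development by trapezoidal AUC.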

Test [16] is described as follows: CCTE_Shafer_MEA_dev_per_network_spike_spike_percent: CCTE's Neural Network Formation Assay for Percent of Spikes in a Network Spike, Shafer Lab (AID 2284054). The method in brief:
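Rat primary cortical cultures, 1.5 x 10^5 cells/well on MEA. Continuous compound exposure d0–12, medium/compound renewed DIV 5, 9. Network-spike spike % (0.05 s peak window), AUC over 4 recordings, DMSO baseline.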

Test [17] in a line: CCTE_Shafer_MEA_dev_LDH: CCTE's Lactate Dehydrogenase Assay for Cytotoxicity in the Neural Network Formation Assay, Shafer Lab (AID 2284068; active means hit-call score of the fitted dose curve at least 0.9, where 1 is the maximum;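 further: exposure for twelve days from plating with re-dosing on DIV 5 and 9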). The gist of the method: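 Cytotoxicity companion to network-formation recordings: rat cortical neurons received compound over 12 days of development, re-dosed at DIV 5 and 9 feeds. Viability was inferred from LDH enzyme activity relative to DMSO.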

A short description of test [18]: CCTE_Shafer_MEA_dev_AB: CCTE's Alamar Blue Assay for Cytotoxicity in the Neural Network Formation Assay, Shafer Lab (AID 2284083; active means hit-call score of the fitted dose curve at least 0.9, where 1 is the maximum;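 further: twelve days of exposure from plating with re-dosing on DIV 5 and 9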). The method in brief:
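Fluorescent resazurin reduction serves as the viability read-out, with DMSO as negative control and baseline. Cells were primary rat cortical neurons grown on MEA plates and dosed from day 0 to day 12, treatment renewed on DIV 5 and 9.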

Test [19] can be described thus: CCTE_Shafer_MEA_dev_mutual_information_norm: CCTE's Neural Network Formation Assay for Mutual Information Normalization, Shafer Lab (AID 2284091).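 On AC50: mutual information between electrodes summarised as area under curve across four recording days; potency is for a decrease in mutual information relative to DMSO.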 The gist of the method:
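Developing rat cortical networks on 16-electrode MEA wells are treated throughout formation (DIV 0–12). Shared electrode information is recorded four times, converted to area-under-curve, and fitted for decreases against DMSO vehicle.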

Regarding `ClP(Cl)c1ccccc1`, the result in test [1] was inactive.
Take `O=C1C2CC=CCC2C(=O)N1SC(Cl)(Cl)C(Cl)Cl` (stereo unspecified): the AC50 with DIO2 (gene 1734) is active: 50.4 µM. The compound was called inactive in test [2] and in test [3].
For the compound `CC(C)OP(=O)(OC(C)C)SCCNS(=O)(=O)c1ccccc1`, the outcome in test [4], in test [5], in test [6], in [7], in test [8] and in test [9] was inactive. The compound was called inactive in test [10], in test [11], in test [12], in [14], in test [15] and in [18]. Moreover, in test [19], the result was inactive. Further, the results for the AC50 in test [13], in [16] and in test [17] were active: 50 µM, active: 29.7 µM and active: 71.3 µM, respectively.
Take `CN(C(=O)Cc1cccc2occc12)[C@H]1CC[C@@]2(CCCO2)C[C@@H]1N1CCCC1`: the AC50 in test [4] was active: 16.6 µM; in [6], active: 15 µM; in [12] it was active: 1.98 µM; in test [13] it was active: 10 µM; in [17], active: 10 µM. Further, the outcome in test [5], in [7], in [8], in test [9], in test [10] and in test [11] was inactive. Besides, the compound was classed as inactive in [14], in test [15], in test [16], in [2], in [18] and in test [3]. For the same compound, the compound was called inactive in test [19].
On to `CC(C)OP(=S)(OC(C)C)SCCNS(=O)(=O)c1ccccc1`, for which the AC50 is active: 34.5 µM and active: 12.5 µM in [4]; active: 25.8 µM and active: 13.3 µM in test [6]; active: 18.7 µM and active: 8.61 µM in test [7]; active: 12.3 µM in test [8]; active: 24.2 µM and active: 8.4 µM in test [9]; active: 15.9 µM in [11]. Besides, the AC50 in test [12] is active: 50 µM and active: 11.8 µM; in test [13], active: 20 µM and active: 10.5 µM; in test [14] it was active: 10.8 µM and active: 9.46 µM; in test [15], active: 50 µM and active: 13.4 µM; in [16] it was active: 11.2 µM and active: 24.3 µM; in [17] it was active: 35.3 µM and active: 29.4 µM. Further, the AC50 in test [18] is active: 67.3 µM and active: 67.5 µM; in [19] it was active: 35.9 µM and active: 12.1 µM. In addition, the compound was called inactive in test [8], in test [10], in [11] and in test [2].
